The values below are quoted from earlier work in patent US20120178771A1, “Oral Pharmaceutical Compositions of Buprenorphine and Method of Use” (priority 2008, published 2012).

For this data set the following is noted: principal metabolite of buprenorphine; Kuhlman et al, Addiction 1998.

As for `CO[C@]12CC[C@@]3(C[C@@H]1[C@](C)(O)C(C)(C)C)[C@H]1Cc4ccc(O)c5c4[C@@]3(CCN1)[C@H]2O5`, the elimination half-life result is given as “approximately 57 hours”.
